Assay results reported in ChEMBL document CHEMBL2396593, “Targeting mutant KRAS for anticancer therapeutics: a review of novel small molecule modulators” (J Med Chem, 2013).

Tested on: T29Kt1
Test: Cytotoxicity against human T29Kt1 cells by SRB assay
Type: functional, cell-based

## O=Cc1cn(Cc2ccc(Cl)cc2)c2ccccc12
  Activity: Dose-dependent effect
